The numbers were not newly measured in patent US7345073B2, “Method for treating cryptorchidism” (Hormos Medical Ltd., priority 2003, dated 2008), which cites them from elsewhere.

In the data set the test system is cryptorchidism (non-descended testes). The following applies: according to one study; cited from earlier work.

For the substance “hCG: human chorionic gonadotrophin, hormonal treatment of cryptorchidism”, the “efficacy in cases of true non-descended testes” value is “ineffective”.
